The source of these data is PubChem BioAssay AID1496 (Sanford-Burnham Center for Chemical Genomics, 2009).

By UniProt entry, the sequences of proteins in these tests, tags left out.
UniProt Q01196, whole entry, looked up: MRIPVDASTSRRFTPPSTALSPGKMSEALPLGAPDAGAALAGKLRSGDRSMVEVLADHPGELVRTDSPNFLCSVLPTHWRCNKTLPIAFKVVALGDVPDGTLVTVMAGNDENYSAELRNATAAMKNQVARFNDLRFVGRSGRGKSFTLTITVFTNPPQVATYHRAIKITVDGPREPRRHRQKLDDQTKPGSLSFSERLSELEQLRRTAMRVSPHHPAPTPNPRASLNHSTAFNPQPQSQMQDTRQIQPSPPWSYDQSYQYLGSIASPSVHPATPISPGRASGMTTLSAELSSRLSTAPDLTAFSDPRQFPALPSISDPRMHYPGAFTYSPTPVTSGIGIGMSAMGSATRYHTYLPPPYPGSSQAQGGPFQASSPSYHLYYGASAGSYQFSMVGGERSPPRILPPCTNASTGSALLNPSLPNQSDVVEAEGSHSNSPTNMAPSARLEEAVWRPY
UniProt Q13951, whole entry, looked up: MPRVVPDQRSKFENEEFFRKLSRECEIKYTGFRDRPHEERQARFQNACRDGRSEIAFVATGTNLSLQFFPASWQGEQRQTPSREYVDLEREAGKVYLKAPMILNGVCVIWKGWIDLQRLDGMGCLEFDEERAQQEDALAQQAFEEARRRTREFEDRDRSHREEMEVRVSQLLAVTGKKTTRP

The list shows a part of the results, in another mix than the full data. Calls of active or inactive are those of the source.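 Rule for the calls: active = inhibition over about 50% at 20 µM in the single-dose screen (limit read from the data); inactive = the rest.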

For the test, the target named is Runt-related transcription factor 1 (Homo sapiens) + Core-binding factor subunit beta (Homo sapiens) (UniProt Q01196+Q13951). In words: inhibitors of RUNX1 Runt–CBFb binding, primary screen, biochemical, FRET, Cerulean-Runt, Venus-CBFb, uHTS (AID 1496).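 Note: 0% = DMSO wells and 100% = excess unlabeled CBFb competitor control.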 To be noted: Cerulean-Runt/Venus-CBFb FRET ratio 530/480, 1 h; at 20 µM; stronger effect = higher value. A digest of the protocol: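 Assay system: Cerulean-Runt domain / Medium: Tris 50 mM pH 7.5, KCl, K2SO4, 0.01% BSA / Timing: protein complex preformed 1 h, compound exposure 1 h, room temperature, dark / Measured by: FRET, excitation 422 nm, emission at 530 and 480 nm / Evaluation: loss of energy transfer signal / Control set: 5 µM unlabeled CBFb as full-inhibition high control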
On to `O=C(Nc1cc([As](=O)(O)O)ccc1O)c1ccccc1`, for which the inhibition is inactive: 4.5%.
In the case of `O=C(O)CNc1ccc([As](=O)(O)O)cc1`, the inhibition was inactive: 0.2%.
Under `O=[N+]([O-])c1cccc(NC2=NCC(CBr)S2)c1` (stereo unspecified) stands inactive: -0.7%.
With `O=[N+]([O-])c1ncn(CCn2ncnc2[N+](=O)[O-])n1`, the inhibition is inactive: 1.4%.
For `CC(C)(C)C(=O)NC(Sc1ccncn1)C(Cl)(Cl)Cl` (stereo unspecified) the value was inactive: 17.1%; for `O=P(Nc1nc2ccccc2s1)(c1ccccc1)c1ccccc1`, inactive: 0.5%; for `C[C@H]1OP(=O)(Oc2ccccc2)[C@H](O)[C@H](O)[C@H]1N=[N+]=[N-]` (stereo partly specified), inactive: -1.1%.
Under `O=P(Nc1ccccn1)(c1ccc(Br)cc1)c1ccc(Br)cc1` stands inactive: 0.4%.
Take `O=C(OC1CN2CCC1CC2)c1cccc(Cl)c1` (stereo unspecified): the inhibition is inactive: -1.8%.
Under `C(Cc1nn[nH]n1)Cc1nn[nH]n1` stands inactive: -0.3%; under `Nc1ccc([As](=O)(O)c2ccc([N+](=O)[O-])cc2)cc1`, inactive: 2.4%.
On to `O=[As](O)(c1ccccc1)c1ccc(O)cc1`, for which the inhibition was inactive: -0.4%.
Take `O=[N+]([O-])c1ncn(CCn2cnc([N+](=O)[O-])n2)n1`: the inhibition is inactive: -1.6%.
For `CC(=O)NC(SC(=S)N(C)C)C(Cl)(Cl)Cl` (stereo unspecified) the value was inactive: 4.7%; for `c1nnnn1CCn1cnnn1`, inactive: 0.9%.
Take `O=P(Nc1nccs1)(c1ccccc1)c1ccccc1`: the inhibition is inactive: 0.5%.
For the compound `CC(C)C(=O)NC(Sc1ccccc1)C(Cl)(Cl)Cl` (stereo unspecified), the inhibition is inactive: 0.4%.
Under `CC(C)(C)C(=O)NC(Sc1ccccc1)C(Cl)(Cl)Cl` (stereo unspecified) stands inactive: 0.3%; under `O=P1(Nc2nc3ccc(Cl)cc3s2)COc2ccccc2O1` (stereo unspecified), inactive: 1.2%; under `CCOc1ccc(C2=NCC(CBr)S2)cc1` (stereo unspecified), inactive: 0.3%.
For `CC(=O)Nc1ccc([As](=O)(O)O)c(O)c1`, the inhibition is inactive: 1.4%.
Take `CC(=O)Nc1ccc(Oc2c([N+](=O)[O-])cc([N+](=O)[O-])cc2[N+](=O)[O-])cc1`: the inhibition is inactive: 2.3%.
For the compound `C[C@H]1OP(=O)(Oc2ccccc2)C[C@@H]2O[C@@H]21` (stereo partly specified), the inhibition is inactive: 1.5%.
For `C[C@@H]1C=CCP(=O)(Oc2ccccc2)O1` (stereo partly specified) the value was inactive: 0.3%; for `c1ccc(-c2nn[nH]n2)c(-c2nn[nH]n2)c1`, inactive: 1.3%; for `CCOC(=O)NC(Sc1ccccc1)C(Cl)(Cl)Cl` (stereo unspecified), inactive: 5.7%.
Turning to `Cc1ccc(NP(=O)(Oc2cccc(C)c2)Oc2cccc(C)c2)nc1`, the inhibition is inactive: -1.2%.
Consider `O=C(NC1CCS(=O)(=O)C1)NP(=S)(Oc1ccccc1)Oc1ccccc1` (stereo unspecified), for which the inhibition is inactive: -0.5%.
For the compound `CCNC(=S)/N=C(\N)N[N+](=O)[O-]`, the inhibition was inactive: 1.3%.
`Cc1ccccc1OP(=O)(Nc1ccccn1)Oc1ccccc1C`: the inhibition was inactive: -0.2%.
For `O=c1c2cc([N+](=O)[O-])ccc2[nH]c2c([N+](=O)[O-])cc([N+](=O)[O-])cc12` the value was inactive: -3.1%; for `CN(C)C(=O)Oc1noc2ccccc12`, inactive: 2.3%; for `CCC(=O)N1C2C3N(C(=O)CC)C1C1N(C(=O)CC)C(C(N1C(=O)CC)N3C(=O)CC)N2C(=O)CC`, inactive: 0.1%.
Regarding `COC(=O)c1cc2c(s1)N=C(c1ccccc1)N(C)P2(=O)N1CCOCC1` (stereo unspecified), the inhibition was inactive: -1.9%.
As to `Cc1ccc(OP(=O)(Nc2ccccn2)Oc2ccc(C)cc2)cc1`, the inhibition is inactive: -2%.
Under `CC(=O)NC(SC(=S)N(CC(C)C)CC(C)C)C(Cl)(Cl)Cl` (stereo unspecified) stands inactive: 2.5%.
`O=C(O)COc1ccc([As](=O)(O)O)cc1[N+](=O)[O-]`: the inhibition is inactive: 2.1%.
For `Nc1ccccc1[As](=O)(O)c1ccccc1`, the inhibition is inactive: -0.9%.
Under `CCOP1(=S)c2c(C)nn(CCC#N)c2N=C(c2ccccc2F)N1C` (stereo unspecified) stands inactive: -0.1%; under `O=P(Nc1nccs1)(c1ccccc1)c1nc2ccccc2s1` (stereo unspecified), inactive: 20%; under `CS(=O)(=O)c1cc([N+](=O)[O-])c2no[n+]([O-])c2c1`, inactive: -135%.
Under `CN(C(=O)Cc1ccccc1)[C@@H]1CC[C@]2(CCCO2)C[C@H]1N1CCCC1` stands inactive: 3.7%.
For `CCOP1(=S)c2c(C)nn(CCC#N)c2N=C(c2ccc(F)cc2)N1C` (stereo unspecified) the value was inactive: -1.1%; for `O=[N+]([O-])c1ccc2c(c1)nnn2O`, inactive: 0.8%.
Turning to `NC(=O)Nc1ccc([As](=O)(O)O)cc1`, the inhibition is inactive: 0.5%.
Under `Cc1cccc(OCC(=O)OC2CN3CCC2CC3)c1` (stereo unspecified) stands inactive: -0.8%.
For `O=[As](O)(c1cccc(O)c1)c1cccc(O)c1` the value was inactive: 1.1%; for `O=C(OC1CN2CCC1CC2)c1ccc(Cl)cc1` (stereo unspecified), inactive: -0.3%; for `O=[As](O)(O)c1cccnc1`, inactive: -0.2%.
As to `COc1cc(C(=O)NCC2(N3CCOCC3)CCCCC2)cc(Cl)c1OC(C)C`, the inhibition is inactive: -2.9%.
`COc1cc(C2NCCC3(OCCO3)C2(C)C)cc(OC)c1OC` (stereo unspecified): the inhibition was inactive: -0.9%.
Under `CCOP(=O)(Nc1cccc2ccccc12)OCC` stands inactive: -2.7%.
Turning to `Nc1cccc2c([As](=O)(O)O)cccc12`, the inhibition is inactive: -95.6%.
Under `Cc1ccc(NCCc2c([N+](=O)[O-])cc([N+](=O)[O-])cc2[N+](=O)[O-])cc1` stands inactive: 8.1%.
Under `CCCOP(=S)(Nc1nc(N)cc(=O)[nH]1)OCCC` stands inactive: 2.4%; under `Clc1n[nH]nc1-c1nn[nH][15n]1`, inactive: 4.1%; under `CC(C)(C)C(=O)NC(Sc1ncccn1)C(Cl)(Cl)Cl` (stereo unspecified), inactive: 6.7%.
Under `O=P1(Nc2ccccn2)COc2ccccc2OC1` stands inactive: -0.3%.
Regarding `CCOP(=O)(Nc1ccc(C)cn1)OCC`, the inhibition was inactive: 1%.
In the case of `CN(C(=O)Cc1ccc(Cl)c(Cl)c1)[C@@H]1CCCC[C@H]1N1CCCC1`, the inhibition is inactive: 0.6%.
With `CC(C)/C=N\N=C(\N)N[N+](=O)[O-]`, the inhibition is inactive: -0.5%.
As for `O=[As](O)(c1ccccc1Br)c1ccccc1Br`, the inhibition was inactive: -0.1%.
For the compound `CN(C)C1(CNC(=O)c2ccc(S(C)(=O)=O)cc2)CCCCC1`, the inhibition was inactive: 1.4%.
`O=C(/C=C/c1ccccc1)OC1CN2CCC1CC2` (stereo unspecified): the inhibition is inactive: 1.2%.
For `Cc1nn(-c2ccccc2)c2c1P(=O)(N1CCOCC1)N(C)C(c1ccccc1)=N2` (stereo unspecified) the value was inactive: 0.5%; for `CC1CCC(C(C)C)C(OP(=O)(Nc2ccccn2)c2ccccc2)C1` (stereo unspecified), inactive: -3.8%; for `Nc1cccc([As](=O)(O)c2ccccc2)c1`, inactive: -1.2%.
Under `O=[As](O)(c1cccs1)c1cccs1` stands inactive: 1.5%.
For `Cc1ccc(OCC(=O)OC2CN3CCC2CC3)cc1` (stereo unspecified) the value was inactive: 0.1%; for `O=P1(Nc2ccc(Br)cn2)COc2ccccc2OC1`, inactive: 0.4%.
On to `O=P1(Nc2ncccn2)COc2ccccc2OC1`, for which the inhibition was inactive: 0.4%.
Regarding `Cc1cc(SC(NC(=O)c2ccccc2)C(Cl)(Cl)Cl)nc(C(C)C)n1` (stereo unspecified), the inhibition is inactive: 43.1%.
Consider `CCOC(=O)Nc1ccc([As](=O)(O)O)c(O)c1`, for which the inhibition is inactive: 6.4%.
For `Cc1cc(SC(NC=O)C(Cl)(Cl)Cl)ncn1` (stereo unspecified), the inhibition was inactive: 44.4%.
On to `O=P(Nc1ccccn1)(c1cccc2ccccc12)c1cccc2ccccc12`, for which the inhibition was inactive: 1.3%.
Under `O=[N+]([O-])c1ccc(Nc2ccc(Oc3ccc([N+](=O)[O-])cc3[N+](=O)[O-])cc2)c([N+](=O)[O-])c1` stands inactive: 1.1%.
For `CCOC(=O)Nc1cccc([As](=O)(O)O)c1` the value was inactive: 1.3%; for `O=C(COc1ccccc1)OC1CN2CCC1CC2` (stereo unspecified), inactive: -0.4%.
Under `COP1(=S)c2c(C)nn(CCC#N)c2N=C(c2ccc(F)cc2)N1C` (stereo unspecified) stands inactive: 0.5%; under `CCC(C)N(CC(C)C)C(=S)SC(NC(C)=O)C(Cl)(Cl)Cl` (stereo unspecified), inactive: 12.4%; under `CCOC(=O)c1ccc(NC(=O)C(C)(CCl)SC)cc1` (stereo unspecified), inactive: 1.3%.
In the case of `COc1ccc2nc(NP(=O)(c3ccccc3)c3ccccc3)sc2c1`, the inhibition is inactive: 0%.
For `COc1cc(I)ccc1[As](=O)(O)O` the value was inactive: -0.4%.
For `Cc1c2c(nc3ccccc13)SC(C(Cl)Cl)C2` (stereo unspecified) the value was inactive: 0.9%; for `O=C(OC1CN2CCC1CC2)C12CC3CC(CC(C3)C1)C2` (stereo unspecified), inactive: -1.8%; for `Cc1cc(=O)[nH]c(N[N+](=O)[O-])n1`, inactive: 1.1%.
Under `COc1ccc(N/C(=N/P(=O)(N2CCOCC2)N2CCOCC2)N2CCOCC2)cc1` stands inactive: -0.9%; under `Cc1ccc(OP(=O)(Nc2ccc([N+](=O)[O-])cn2)Oc2ccc(C)cc2)cc1`, inactive: -0.4%; under `Cc1ccc2nc3c(c(C)c2c1)CC(C(Cl)Cl)S3` (stereo unspecified), inactive: -0.2%.
For the compound `O=[As](O)(c1ccc(O)cc1)c1ccccc1O`, the inhibition is inactive: -2.9%.
For `C[As](=O)(O)c1cccc(C(=O)O)c1`, the inhibition is inactive: 0.4%.
Under `CC(C)NC(=O)NP(=O)(Oc1ccccc1)Oc1ccccc1` stands inactive: 0.6%; under `CCN(CC)C(=S)SC(NC=O)C(Cl)(Cl)Cl` (stereo unspecified), inactive: 3%; under `O=[N+]([O-])c1cc([N+](=O)[O-])c(-c2ccn[nH]2)s1`, inactive: 20.3%.
For the compound `ClCCSc1nnc(-c2cccnc2)o1`, the inhibition is inactive: 0.3%.
As to `CC(C)c1ccc(OP(=O)(Nc2ccccn2)Oc2ccccc2F)cc1` (stereo unspecified), the inhibition is inactive: -1.1%.

A word on the inhibition: it is the change of the read-out against control, counted positive when it falls.
